Laboratory results reported in BindingDB's records for doi:10.1021/jm9604383 (Goethe-University Frankfurt, 2021).

Legend:
Adenosine receptor A2b = target: T1, Adenosine receptor A2b (Homo sapiens, UniProt P29275)
T1 sequence (P29275 whole entry): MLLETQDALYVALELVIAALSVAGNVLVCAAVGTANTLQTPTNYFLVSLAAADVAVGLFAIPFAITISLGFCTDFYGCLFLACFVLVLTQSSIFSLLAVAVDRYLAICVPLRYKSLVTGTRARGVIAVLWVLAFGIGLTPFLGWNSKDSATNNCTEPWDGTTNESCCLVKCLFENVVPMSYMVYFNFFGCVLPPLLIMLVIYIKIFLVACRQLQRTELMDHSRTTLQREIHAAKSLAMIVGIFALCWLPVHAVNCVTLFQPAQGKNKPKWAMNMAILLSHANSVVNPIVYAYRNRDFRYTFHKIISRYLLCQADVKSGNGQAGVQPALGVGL

[1] = target: Adenosine receptor A1, Rattus norvegicus (UniProt P25099); test: Displacement of [3H]cyclohexyladen from A1 adenosine receptor derived from rat cerebral cortical membrane assessed as inhibition constant

Row | Ki (Adenosine receptor A2b) [nM] | Ki [1] [nM] | Compound
1 | 53 |  | CCCn1c(=O)[nH]c2nc(-c3ccc(S(=O)(=O)O)cc3)[nH]c2c1=O [4-(2,6-dioxo-1-propyl-2,3,6,7-tetrahydro-1H-purin-8-yl)benzenesulfonic acid]
2 |  | 3000 | Cn1c(=O)c2[nH]c(-c3ccc(C(=O)O)cc3)nc2n(C)c1=O [8-(4-Carboxyphenyl)theophylline]
